“Also recorded” adds a separate entry of the source.

One assay concerns Smad 1/5/9. Briefly: BMP-2-induced Smad 1/5/9 phosphorylation by Western blotting in C2C12 cells. In kind it is cell-based, murine. The settings on record: BMP-2 100 ng/mL, 5 μg/mL. As to the method:
C2C12 murine myoblast cells were cultured in DMEM, 10% FCS and 100 U/mL penicillin/streptomycin at 37° C. in 5% CO2. For experiments, cells were seeded at 2×10^4 cells/cm2 in tissue culture treated 12-well plates. After 24 h, cells were washed and media was replaced with treatment media (maintenance media with 5% FCS) with or without BMP-2 (100 ng/mL) and heparin, heparin oligosaccharides or desulfated heparins (5 μg/mL). At the indicated time points (24, 48 and 72 h), cells were washed with PBS and lysed with RIPA buffer in the presence of protease inhibitors (Merck-Millipore). Total protein was quantified using the BCA assay and subsequently separated by SDS-PAGE (5 μg total protein per condition). Proteins were then transferred to nitrocellulose membranes and blocked for 1 h in blocking buffer (Tris-buffered saline containing 5% (w/v) non-fat dry milk and 0.05% (v/v) Tween 20). Incubation with primary antibodies diluted at 1:1000 (pSmad 1/5/9), 1:500 (Smad 1/5/8) or 1:5000 (actin) was carried out overnight at 4° C. in blocking solution. Membranes were washed three times with Tris-buffered saline containing 0.05% (v/v) Tween 20 and incubated with IgG-specific peroxidase-conjugated secondary antibodies, diluted 1:10000 in blocking buffer. Blots were then washed and developed using SuperSignal West Pico Chemiluminescent substrate (Thermo Scientific) on Hyperfilm (GE Healthcare) and scanned. Blots are representative of three independent experiments.
(Immunoblotting shows a protein as a band on a membrane.)

The subject of another assay is C2C12 cells. Briefly: Osteogenic differentiation and mineralization (Alizarin red). In kind it is cell-based, murine. The settings on record: BMP-2 100 ng/mL, 5 μg/mL, 12 days. As to the method:
C2C12 cells were maintained as described above and seeded at 5×10^3 cells/cm2 in tissue culture treated 12-well plates. Cells were cultured in osteogenic media (DMEM low glucose, 5% (v/v) FCS, 100 U/mL penicillin/streptomycin, 10 mM μ-glycerophosphate and 50 μg/mL ascorbic acid 2-phosphate) with or without BMP-2 (100 ng/mL) and heparin variants (5 μg/mL) for 12 days, with media being replenished every three days. Cells were washed with PBS and fixed with ice cold methanol for 20 min at −20° C. After fixation, cells were washed with water and stained with Alizarin red solution (0.1% (w/v), pH 4.3) for 20 min at room temperature with gentle agitation. Cells were then washed three times with water and imaged using a scanner. Alizarin red dye was extracted with 10% (v/v) acetic acid, neutralized with 10% (w/v) ammonium hydroxide and quantified using spectrophotometry (absorbance at 405 nm). Images are representative of at least three independent experiments and quantified Alizarin red stain represents mean±S.D. of three independent experiments.

A further assay concerns Sprague Dawley rats. In words: Rat ectopic bone formation assay. In kind it is in vivo. The settings on record: 8 weeks. As to the method: Thirteen female, Sprague Dawley rats weighing 120-150 g had four hind limb muscle pockets surgically created, two per limb. Each pocket was randomly filled with one of the following treatments; (1) Polycaprolactone tube (PT), (2) PT+collagen sponge (CS) (Ctrl), (3) PT+CS+BMP-2 (5 μg), (4) PT+CS+heparin (25 μg)+BMP-2 (5 μg), (5) PT+CS+dp8 (25 μg)+BMP-2 (5 μg), (6) PT+CS+dp10 (25 μg)+BMP-2 (5 μg), (7) PT+CS+dp12 (25 μg)+BMP-2 (5 μg), (8) PT+CS+de-2-O sulfated heparin (25 μg)+BMP-2 (5 μg) (9) PT+CS+de-6-O sulfated heparin (25 μg) +BMP-2 (5 μg, (10) PT+CS+de-N-sulfated heparin (25 μg)+BMP-2 (5 μg). There were 4 replicates for groups (1-3) and 5 replicates for groups (4-10). The doses and ratio of BMP-2 and heparin were based on those used in previous studies. […] All samples were assessed with 2D x-rays, μ-CT and histology to assess the extent of bone mineral deposition. […]
A μ-CT scanner (Skyscan 1076; Skyscan, Belgium) was utilized to scan the harvested specimens (resolution=35 μm; scanning width=68 mm) as per our previous methods. […] The total bone volume within the ROI was quantified by assigning a pre-determined threshold for total bone content. […]
Specimens were fixed in 10% formalin (neutral buffered) under vacuum for one week. […] All sections were examined with an Olympus Stereo (SZX12) and upright (BX51) fluorescence microscopes.

B1: BMP-2: recombinant bone morphogenetic protein 2 purchased from R&D Systems (protein, UniProt P12643 283-396, looked up)
Bone morphogenetic protein 2: QAKHKQRKRLKSSCKRHPLYVDFSDVGWNDWIVAPPGYHAFYCHGECPFPLADHLNSTNHAIVQTLVNSVNSKIPKACCVPTELSAISMLYLDENEKVVLKNYQDMVVEGCGCR
In the case of B1, the entries for the “Smad 1/5/9 phosphorylation” value in the assay with Smad 1/5/9 (24 h), in the assay on Smad 1/5/9 (48 h) and in the assay on Smad 1/5/9 (72 h) were “detectable”, “detectable” and “no longer detectable; also recorded: barely detectable”, respectively. In addition, the “mineralization (Alizarin red stain)” value with C2C12 cells is on record as “not sufficient to induce mineralization”. For the same molecule, the “increase in bone volume compared to control (Ctrl)” value in the assay on Sprague Dawley rats (5 μg BMP-2 on collagen sponge, μ-CT) was ~16 fold. For the same molecule, the “bone tissue in histological sections” value in the assay on Sprague Dawley rats (5 μg BMP-2 with or without 25 μg) is listed as “deposition of a calcified bone matrix”.

The record behind these values is patent publication US11331337B2, “Heparin and heparan sulphate oligosaccharides” (Agency for Science, Technology and Research, priority 2017, dated 2022).
